Source: PMC4707132 (Journal of medicinal chemistry, 2015)

The chains behind the UniProt entries cited, without tags or fusion partners.
UniProt Q07820, whole entry: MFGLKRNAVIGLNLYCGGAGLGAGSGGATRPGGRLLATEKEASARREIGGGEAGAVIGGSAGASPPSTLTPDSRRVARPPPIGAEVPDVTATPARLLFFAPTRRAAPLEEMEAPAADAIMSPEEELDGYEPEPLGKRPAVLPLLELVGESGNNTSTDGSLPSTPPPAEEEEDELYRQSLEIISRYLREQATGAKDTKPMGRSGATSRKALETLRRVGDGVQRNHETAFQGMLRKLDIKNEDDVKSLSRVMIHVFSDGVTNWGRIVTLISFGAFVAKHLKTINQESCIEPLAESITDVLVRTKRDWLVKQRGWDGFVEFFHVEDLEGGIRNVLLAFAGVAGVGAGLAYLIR

Molecular target: Mcl-1 (Homo sapiens, UniProt Q07820)
Experiment: fluorescence polarization competition assay
Format: binding
Conditions: competition with Noxa peptide

R-(-)-gossypol [AT-101, reference compound]
polarization on addition of compound: dose-dependent decrease in polarization
